{
  "sequences": {"note": "The chains behind the UniProt entries cited, without tags or fusion partners.", "UniProt Q9WTR4, whole entry": "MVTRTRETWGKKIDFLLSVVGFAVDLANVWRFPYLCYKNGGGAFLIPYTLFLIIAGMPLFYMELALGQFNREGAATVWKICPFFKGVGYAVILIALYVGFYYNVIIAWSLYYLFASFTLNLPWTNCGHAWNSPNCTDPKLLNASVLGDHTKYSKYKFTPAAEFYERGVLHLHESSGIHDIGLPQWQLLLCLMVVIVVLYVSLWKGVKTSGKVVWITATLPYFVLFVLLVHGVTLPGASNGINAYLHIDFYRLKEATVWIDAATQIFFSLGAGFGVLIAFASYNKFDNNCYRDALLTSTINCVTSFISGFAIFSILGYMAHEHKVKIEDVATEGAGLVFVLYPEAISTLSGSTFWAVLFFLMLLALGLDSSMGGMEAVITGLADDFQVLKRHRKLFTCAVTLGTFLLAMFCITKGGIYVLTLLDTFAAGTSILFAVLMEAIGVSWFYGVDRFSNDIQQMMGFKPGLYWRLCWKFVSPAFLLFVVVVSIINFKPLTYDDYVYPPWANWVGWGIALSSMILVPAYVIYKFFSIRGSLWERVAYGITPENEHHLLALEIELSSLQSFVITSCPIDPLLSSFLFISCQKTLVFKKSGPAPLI", "UniProt P31652, whole entry": "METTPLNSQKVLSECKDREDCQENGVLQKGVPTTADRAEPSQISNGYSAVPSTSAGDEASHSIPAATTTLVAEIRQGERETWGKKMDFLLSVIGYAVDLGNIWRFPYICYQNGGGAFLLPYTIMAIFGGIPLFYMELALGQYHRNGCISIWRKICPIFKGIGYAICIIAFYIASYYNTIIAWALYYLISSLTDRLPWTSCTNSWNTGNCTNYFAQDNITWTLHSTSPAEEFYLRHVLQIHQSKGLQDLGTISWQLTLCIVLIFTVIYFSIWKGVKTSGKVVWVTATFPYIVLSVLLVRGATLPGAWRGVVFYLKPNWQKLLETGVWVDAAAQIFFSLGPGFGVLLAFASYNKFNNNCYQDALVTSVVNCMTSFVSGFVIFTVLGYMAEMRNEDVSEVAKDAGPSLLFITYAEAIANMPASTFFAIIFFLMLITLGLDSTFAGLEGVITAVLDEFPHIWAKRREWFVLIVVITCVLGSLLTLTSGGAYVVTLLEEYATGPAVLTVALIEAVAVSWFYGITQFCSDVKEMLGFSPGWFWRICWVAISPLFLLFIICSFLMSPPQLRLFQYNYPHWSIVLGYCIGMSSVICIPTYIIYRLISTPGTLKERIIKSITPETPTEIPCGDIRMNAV"},
  "source": "ChEMBL document CHEMBL1131002",
  "about": "“2beta-Substituted analogues of 4'-iodococaine: synthesis and dopamine transporter binding potencies” (J Med Chem, 1998)",
  "key": {"[1]": {"target": "Norepinephrine transporter (Rattus norvegicus, UniProt Q9WTR4)", "experiment": "Inhibition of norepinephrine Transporter Affinity against rat whole brain using [3H]nisoxetine radioligand", "in_short": "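Whole brain minus cerebellum membranes in 50 mM Tris-HCl pH 7.4 with 300 mM NaCl and 5 mM KCl. Displacement of 0.7 nM [3H]nisoxetine. Incubated 40 min at 25 °C, then filtered on BSA-soaked GF/B. 1 μM desipramine defined nonspecific binding.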"}, "[2]": {"target": "Sodium-dependent serotonin transporter (Rattus norvegicus, UniProt P31652)", "experiment": "Inhibition of serotonin Transporter Affinity against rat whole brain using [3H]paroxetine as radioligand"}},
  "data": [
    {"smiles": "COC(=O)[C@H]1[C@@H](OC(=O)c2ccccc2)C[C@@H]2CC[C@H]1N2C", "note": "[COCAINE]", "values": [
      {"measurement": "IC50", "setting": "[1]", "value": 2500, "unit": "nM"},
      {"measurement": "IC50", "setting": "[2]", "value": 615, "unit": "nM"}
    ]}
  ]
}
